# Ab-14 heavy chain CDR variants: yeast mating affinities

Antigen: PDVDLGDISGINAS, a 14-residue peptide of the SARS-CoV-2 spike HR2 region.

Parent scFv Ab-14: VH joined to VL by the linker GGGGSGGGGSGGGGS. Changes lie in the heavy chain CDRs alone.
VH: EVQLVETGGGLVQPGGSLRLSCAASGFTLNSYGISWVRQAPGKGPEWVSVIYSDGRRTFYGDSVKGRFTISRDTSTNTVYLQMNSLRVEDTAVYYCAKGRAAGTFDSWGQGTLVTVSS
VL: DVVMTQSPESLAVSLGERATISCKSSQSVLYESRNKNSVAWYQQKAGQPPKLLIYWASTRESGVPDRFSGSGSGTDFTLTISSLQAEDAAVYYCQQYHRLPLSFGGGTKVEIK

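Phage display of a naive human antibody library on the peptide gave the parent. In library AAYL49, one, two or three CDR residues were substituted; doubles and triples were drawn at random. Affinity was read by AlphaSeq, a pooled yeast mating assay with surface-displayed partners. The frequency of each diploid, read from paired DNA barcodes, reflects how well the two displayed proteins bind. The ratio of observed to expected reads was calibrated, replicate by replicate, on BCL2-family standards whose Kd was known from biolayer interferometry. The assay was run in three technical replicates.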

Substitutions are numbered in sequence along the VH above, starting at 1 (not Kabat).
This list gathers variants with a substitution at T28 (VH, numbered from residue 1).
The read-out is the apparent dissociation constant on a log10 scale (nM): the lower, the stronger.
The mean shown is taken over the replicates in which the pair was detected.
"no signal" means that the variant was in the library but no mating with the target was seen in any replicate; the authors take this as a sign of poor binding, and no number exists.
As a blank, each scFv also met three strains without target: over library AAYL49, 15% of these pairings were detected, typically at 4.06 and seldom below 2.83.
In this assay the parent's reference entry averaged 0.65; its copy inside this library read 4.11 (one replicate of three).

changes,mean log10 Kd (nM),replicates with signal
T28G+I34V+R57Q,2.82,3/3
T28A+I51W+S107D,no signal,0/3
T28S+V50S+R56P,no signal,0/3
T28V+V64F,0.89,3/3
T28C+S53A,0.27,3/3
T28R+N30K+A101W,no signal,0/3
T28V+I34N+V64N,4.76,1/3
G26F+T28G,1.22,3/3
T28R+R57S+F59M,no signal,0/3
T28F+G33V+K65D,4.96,1/3
T28E+N30T+G55P,no signal,0/3
T28W+S35I+I51W,4.71,2/3
T28C+R56L+T104Y,1.87,3/3
T28R+S53W+D106F,no signal,0/3
T28G+V50K+G61F,no signal,0/3
F27S+T28G+V64E,3.24,1/3
T28S+S35G+K65A,no signal,0/3
T28Q+G33Q+R56F,1.52,3/3
T28H+G55H+G99K,no signal,0/3
T28G+N30C+T58I,4.25,3/3
T28C+L29M+G55V,4.45,2/3
T28S+K65V+G99T,no signal,0/3
T28A+S35R+R56M,4.11,2/3
T28H+S63H+A102G,2.71,2/3
T28F+L29A+S35V,no signal,0/3
T28E+S63R+V64C,no signal,0/3
T28L+S53P+R57K,1.81,1/3
T28R+Y32P+G55D,no signal,0/3
T28L+G33A+Y60D,no signal,0/3
T28P+T58C,4.82,1/3
G26Q+T28C+Y52I,4.76,2/3
T28A+V64A,4.91,2/3
T28L+G33F+K65H,no signal,0/3
T28F+Y60H+A101M,no signal,0/3
T28S+S31Y,1.34,3/3
T28R,0.94,3/3
T28M+N30P+S31C,no signal,0/3
F27C+T28K+L29Q,3.66,2/3
F27D+T28G,2.49,3/3
T28R+T58D,3.02,3/3
T28F+I51N+G99F,4.75,3/3
T28L+R56V+G61E,1.14,3/3
T28F+F105C+S107C,3.12,3/3
T28Q+S53H+T104S,3.41,2/3
T28C+I34A+G99T,3.30,1/3
T28K+G55Q+G103R,no signal,0/3
T28I+S31R+G55S,4.43,1/3
T28H+V50E+T58V,5.04,2/3
T28W+N30H+S31G,1.99,3/3
T28Y+S35Q+A102G,3.01,1/3
T28C+Y52M+R57G,4.46,3/3
T28S+S35N,3.19,3/3
T28W+I51K+G103Q,no signal,0/3
T28W+Y32M+Y52H,4.44,1/3
F27Y+T28Y+D62M,3.82,2/3
T28K,0.85,3/3
T28L+Y32L+S53P,no signal,0/3
T28C+A101L,1.62,3/3
T28F+S35V+D54S,no signal,0/3
T28Y+I51T+D54C,no signal,0/3
T28K+Y32I+S63I,no signal,0/3

The 8 strongest on average among those seen in every replicate, once more:

changes,mean log10 Kd (nM),replicates with signal
T28C+S53A,0.27,3/3
T28K,0.85,3/3
T28V+V64F,0.89,3/3
T28R,0.94,3/3
T28L+R56V+G61E,1.14,3/3
G26F+T28G,1.22,3/3
T28S+S31Y,1.34,3/3
T28Q+G33Q+R56F,1.52,3/3

Data: MIT Lincoln Laboratory AlphaSeq set, Engelhart et al. 2022, doi:10.1038/s41597-022-01779-4, as distributed in FLAb.